Data reported in IntAct's records for PubMed 27088854.

B1: Ketohexokinase (Homo sapiens), P50053-2 (parent)
chain: MEEKQILCVGLVVLDVISLVDKYPKEDSEIRCLSQRWQRGGNASNSCTVLSLLGAPCAFMGSMAPGHVADFVLDDLRRYSVDLRYTVFQTTGSVPIATVIINEASGSRTILYYDRSLPDVSATDFEKVDLTQFKWIHIEGRNASEQVKMLQRIDAHNTRQPPEQKIRVSVEVEKPREELFQLFGYGDVVFVSKDVAKHLGFQSAEEALRGLYGRVRKGAVLVCAWAEEGADALGPDGKLLHSDAFPPPRVVDTLGAGDTFNASVIFSLSQGRSVQEALRFGCQVAGKKCGLQGFDGIV

Variants of: B1
Conditions: with p60891-1 PRPS1, P60891-1

Row | effect of a mutation on the interaction | Variant
1 | disrupting interaction strength | MEEKQILCVGLVVLDVISLVDKYPKEDSEIRCLSQRWQRGGNASNSCTVLSLLGAPCAFMGSMAPGHVADFVLDDLRRYSVDARYTVFQTTGSVPIATVIINEASGSRTILYYDRSLPDVSATDFEKVDLTQFKWIHIEGRNASEQVKMLQRIDAHNTRQPPEQKIRVSVEVEKPREELFQLFGYGDVVFVSKDVAKHLGFQSAEEALRGLYGRVRKGAVLVCAWAEEGADALGPDGKLLHSDAFPPPRVVDTLGAGDTFNASVIFSLSQGRSVQEALRFGCQVAGKKCGLQGFDGIV [L83A]
